Test results published in ChEMBL document CHEMBL4507279, “Data for DCP probe BI-9627” (2021).

Protein sequences, listed by entry. Tags and fused reporters are not part of them. Lines headed by an entry give the natural chain unless they say otherwise; changes in a name come on top.
UniProt P49651: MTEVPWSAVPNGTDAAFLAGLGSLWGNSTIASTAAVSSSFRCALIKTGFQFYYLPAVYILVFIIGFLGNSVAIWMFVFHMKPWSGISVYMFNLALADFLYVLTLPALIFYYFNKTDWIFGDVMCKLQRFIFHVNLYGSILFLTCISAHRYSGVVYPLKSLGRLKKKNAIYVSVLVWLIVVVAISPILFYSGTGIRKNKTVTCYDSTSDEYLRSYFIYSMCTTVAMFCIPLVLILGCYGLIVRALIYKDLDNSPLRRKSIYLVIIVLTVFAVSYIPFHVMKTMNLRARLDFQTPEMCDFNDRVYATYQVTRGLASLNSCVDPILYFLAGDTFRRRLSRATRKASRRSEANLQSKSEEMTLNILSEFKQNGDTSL
UniProt Q15759, whole entry: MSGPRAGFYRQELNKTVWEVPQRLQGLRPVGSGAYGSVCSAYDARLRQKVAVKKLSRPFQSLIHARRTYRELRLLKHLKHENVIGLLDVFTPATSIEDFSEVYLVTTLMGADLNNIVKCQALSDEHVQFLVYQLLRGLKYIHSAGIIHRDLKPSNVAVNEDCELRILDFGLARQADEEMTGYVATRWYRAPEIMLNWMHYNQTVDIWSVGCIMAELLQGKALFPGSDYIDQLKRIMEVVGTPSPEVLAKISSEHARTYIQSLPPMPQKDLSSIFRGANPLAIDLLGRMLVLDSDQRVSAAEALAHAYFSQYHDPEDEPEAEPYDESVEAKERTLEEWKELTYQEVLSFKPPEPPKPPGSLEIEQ
Proto-oncogene tyrosine-protein kinase receptor Ret (Homo sapiens), P07949, UniProt P07949, whole entry M918T: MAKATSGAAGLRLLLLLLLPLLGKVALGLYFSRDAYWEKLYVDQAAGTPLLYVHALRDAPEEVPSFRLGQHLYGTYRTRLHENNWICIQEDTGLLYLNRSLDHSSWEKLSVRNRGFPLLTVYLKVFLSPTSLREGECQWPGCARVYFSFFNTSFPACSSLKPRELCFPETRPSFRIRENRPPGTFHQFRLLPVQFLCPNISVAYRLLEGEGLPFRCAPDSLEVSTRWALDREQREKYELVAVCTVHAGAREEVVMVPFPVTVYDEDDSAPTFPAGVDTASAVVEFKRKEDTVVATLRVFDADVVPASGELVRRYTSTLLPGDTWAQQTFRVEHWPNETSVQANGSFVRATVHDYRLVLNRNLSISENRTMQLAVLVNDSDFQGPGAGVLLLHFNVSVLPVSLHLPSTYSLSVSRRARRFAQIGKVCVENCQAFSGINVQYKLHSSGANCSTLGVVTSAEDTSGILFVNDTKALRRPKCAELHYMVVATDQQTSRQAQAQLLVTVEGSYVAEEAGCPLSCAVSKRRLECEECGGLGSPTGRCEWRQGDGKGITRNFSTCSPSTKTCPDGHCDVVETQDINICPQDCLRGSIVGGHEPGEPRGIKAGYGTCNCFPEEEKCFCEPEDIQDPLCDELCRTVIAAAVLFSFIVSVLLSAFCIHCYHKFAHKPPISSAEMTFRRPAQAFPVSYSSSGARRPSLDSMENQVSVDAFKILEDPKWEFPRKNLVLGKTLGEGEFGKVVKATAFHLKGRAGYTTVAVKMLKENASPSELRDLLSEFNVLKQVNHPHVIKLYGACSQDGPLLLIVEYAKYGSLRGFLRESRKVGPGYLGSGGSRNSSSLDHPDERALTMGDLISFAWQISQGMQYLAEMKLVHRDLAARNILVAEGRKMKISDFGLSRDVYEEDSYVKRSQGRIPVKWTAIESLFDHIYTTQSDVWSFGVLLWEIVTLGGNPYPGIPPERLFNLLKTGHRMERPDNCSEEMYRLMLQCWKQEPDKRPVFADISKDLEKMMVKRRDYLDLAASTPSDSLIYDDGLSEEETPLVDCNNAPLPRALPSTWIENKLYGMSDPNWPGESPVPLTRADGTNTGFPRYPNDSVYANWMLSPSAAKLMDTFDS
UniProt P27448: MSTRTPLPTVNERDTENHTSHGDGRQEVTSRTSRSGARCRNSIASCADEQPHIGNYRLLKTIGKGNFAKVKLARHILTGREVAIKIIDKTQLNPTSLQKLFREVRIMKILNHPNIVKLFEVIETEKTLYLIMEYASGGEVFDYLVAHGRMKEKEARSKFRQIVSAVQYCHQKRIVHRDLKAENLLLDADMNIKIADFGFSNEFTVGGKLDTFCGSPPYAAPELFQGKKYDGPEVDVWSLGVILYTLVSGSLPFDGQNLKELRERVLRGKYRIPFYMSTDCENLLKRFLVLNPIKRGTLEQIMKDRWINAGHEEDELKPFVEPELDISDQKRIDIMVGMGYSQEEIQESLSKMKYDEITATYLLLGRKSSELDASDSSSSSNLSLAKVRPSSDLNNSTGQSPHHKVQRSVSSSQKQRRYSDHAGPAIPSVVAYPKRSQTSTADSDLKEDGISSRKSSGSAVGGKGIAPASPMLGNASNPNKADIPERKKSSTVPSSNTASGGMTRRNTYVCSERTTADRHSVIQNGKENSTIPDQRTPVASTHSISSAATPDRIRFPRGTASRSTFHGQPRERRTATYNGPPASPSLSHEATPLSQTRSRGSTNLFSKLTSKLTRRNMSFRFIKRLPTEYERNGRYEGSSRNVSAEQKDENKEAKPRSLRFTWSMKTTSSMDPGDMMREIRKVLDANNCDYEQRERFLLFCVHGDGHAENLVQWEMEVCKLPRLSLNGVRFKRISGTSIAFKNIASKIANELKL

Key:
[1] = target: P2Y purinoceptor 1 (Rattus norvegicus) (UniProt P49651); test: P2Y/RAT Eurofins-Panlabs selectivity data (BI); conditions: Compound concentration 10.0 uM
[2] = target: Mitogen-activated protein kinase 11 (Homo sapiens) (UniProt Q15759); conditions: Compound concentration 1000.0 nM
[3] = system: Proto-oncogene tyrosine-protein kinase receptor Ret (Homo sapiens), P07949 [M918T]; conditions: Compound concentration 1000.0 nM
[4] = target: MAP/microtubule affinity-regulating kinase 3 (Homo sapiens) (UniProt P27448); conditions: Compound concentration 1000.0 nM
[5] = system: sodium channel alpha subunit, site 2 (Rattus norvegicus); test: NA+/SITE2/RA Eurofins-Panlabs selectivity data (BI); conditions: Compound concentration 10.0 uM
[6] = target: Epidermal growth factor receptor (Homo sapiens) (UniProt P00533); test: EGF/HU Eurofins-Panlabs selectivity data (BI); conditions: Compound concentration 10.0 uM
[7] = system: imidazoline I2 binding site (Rattus norvegicus); test: I2/CENTR/R Eurofins-Panlabs selectivity data (BI); conditions: Compound concentration 10.0 uM

Measured: residual activity

CC(=O)N1CCC(c2ccc(C(=O)NC(=N)N)cc2C(F)(F)F)CC1 [BI 9627]
inactive: [1] 88% | [2] 88% | [3] 88% | [4] 88% | [5] 60% | [6] 88% | [7] 88%
